Results: patent US20240051950A1

Protein sequences, listed by entry. Tags and fused reporters are not part of them.
UniProt P08684, whole entry: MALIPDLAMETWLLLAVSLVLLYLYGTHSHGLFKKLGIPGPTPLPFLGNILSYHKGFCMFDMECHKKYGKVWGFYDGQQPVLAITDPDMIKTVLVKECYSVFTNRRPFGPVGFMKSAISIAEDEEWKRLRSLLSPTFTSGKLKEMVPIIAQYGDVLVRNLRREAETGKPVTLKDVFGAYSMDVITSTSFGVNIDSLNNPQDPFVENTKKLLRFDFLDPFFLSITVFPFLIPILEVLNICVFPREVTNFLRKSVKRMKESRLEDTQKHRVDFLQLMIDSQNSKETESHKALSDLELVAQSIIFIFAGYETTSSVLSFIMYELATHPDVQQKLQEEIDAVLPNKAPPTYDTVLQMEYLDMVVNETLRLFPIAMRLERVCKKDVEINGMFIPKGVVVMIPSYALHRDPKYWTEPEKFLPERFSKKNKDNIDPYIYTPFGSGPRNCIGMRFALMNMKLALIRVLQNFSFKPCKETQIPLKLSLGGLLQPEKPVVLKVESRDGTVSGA

Assays:
CYP3A4 [1] = target: T1, CYP3A4 (Homo sapiens, UniProt P08684); experiment: Spectral binding titrations (equilibrium ligand binding, spectral Kd/Ks); details: for Kd: spectral Kd from equilibrium titration plots, Example 1, Table 1
CYP3A4 [2] = target: T1, CYP3A4; experiment: Thermal denaturation of ligand-bound CYP3A4; details: 1 μM protein, 20 μM ligand
CYP3A4 [3] = target: T1, CYP3A4; experiment: Inhibitory potency assay, BFC O-debenzylation activity in a soluble reconstituted system with cytochrome P450 reductase; details: for IC50 for the BFC debenzylase activity of CYP3A4: 0.1 μM CYP3A4, no NADPH preincubation, Example 2; for IC50: BFC as substrate, reconstituted system with cytochrome P450 reductase, Example 1, Table 1

| Kd (CYP3A4 [1]) [µM] | IC50 (CYP3A4 [3]) [µM] | Structure (SMILES) | further results |
| --- | --- | --- | --- |
| 0.007 | 0.17 | O=C(N[C@H](CS[C@H](Cc1ccccc1)C(=O)NCCCc1ccncc1)Cc1ccccc1)c1cc2ccccc2o1 | – |
| 0.01 | 0.15 | O=C(CNC(=O)c1ccco1)N[C@H](CS[C@H](Cc1ccccc1)C(=O)NCCCc1ccncc1)Cc1ccccc1 | – |
| 0.004 | 0.2 | O=C(N[C@H](CS[C@H](Cc1ccccc1)C(=O)NCCCc1cccnc1)Cc1cccc2ccccc12)c1cc2ccccc2o1 | – |

The next lines start with the compound.

| Structure (SMILES) | Kd (CYP3A4 [1]) [µM] | IC50 (CYP3A4 [3]) [µM] | further results |
| --- | --- | --- | --- |
| CC(C)(C)OC(=O)N[C@H](CS[C@H](Cc1ccccc1)C(=O)NCCOCc1cccnc1)Cc1ccccc1 | – | – | Spectral dissociation constant (Ks) (CYP3A4 [1]; WT CYP3A4, 2 μM protein, 0.1 M phosphate pH 7.4, Example 2): weakest binder; ΔTm (increase in melting temperature of ligand-bound CYP3A4) (CYP3A4 [2]): < 3 °C; IC50 for the BFC debenzylase activity of CYP3A4 (CYP3A4 [3]): least potent inhibitor |
| CC(C)(C)OC(=O)N[C@@H](CS[C@@H](Cc1ccccc1)C(=O)NCCCc1cccnc1)Cc1cccc2ccccc12 | – | – | IC50 for the BFC debenzylase activity of CYP3A4 (CYP3A4 [3]): weakest inhibitor in the subseries |
| O=C(N[C@H](CS[C@H](Cc1ccccc1)C(=O)NCCCc1cccnc1)Cc1c[nH]c2ccccc12)c1cccnc1 | 0.016 | 0.22 | – |
| O=C(N[C@H](CS[C@H](Cc1ccccc1)C(=O)NCCCc1cccnc1)Cc1cccc2ccccc12)c1ccco1 | 0.003 | 0.15 | – |
| CC(C)(C)OC(=O)N[C@H](CS[C@H](Cc1ccccc1)C(=O)NCCCc1cccnc1)Cc1c[nH]c2ccccc12 | – | – | Fold improvement in binding affinity (Ks) (CYP3A4 [1]; relative to the shorter pyridyl-ethyl counterparts (4e-h; 7b)): 4 fold |
